# Binding of CDR-mutated scFvs to a peptide of the spike HR2 region

All variants were tested on one target, the spike HR2 peptide PDVDLGDISGINAS (SARS-CoV-2).

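Library AAYL50 holds single substitutions and randomly drawn double and triple substitutions in the CDRs. AlphaSeq pools MATa yeast showing the antibodies with MATalpha yeast showing the peptide. After mating in shaken culture at 30 °C for 16 h, diploids were selected and their barcode pairs sequenced. Scores were corrected for input abundance and mapped to Kd with protein pairs of known affinity run in the same pool. Each pool was mated in three replicate cultures.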

Each scFv is VH, three GGGGS repeats, VL, as in the parent Ab-14, and differs from it in the CDRs of the light chain only.
VH: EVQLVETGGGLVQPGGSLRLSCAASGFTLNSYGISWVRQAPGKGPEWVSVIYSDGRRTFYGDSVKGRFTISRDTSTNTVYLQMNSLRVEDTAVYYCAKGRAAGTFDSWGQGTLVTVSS
VL: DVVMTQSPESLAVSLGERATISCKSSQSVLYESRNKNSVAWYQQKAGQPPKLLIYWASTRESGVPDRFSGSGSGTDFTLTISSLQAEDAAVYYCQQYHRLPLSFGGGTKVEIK

The parent's light chain CDRs are KSSQSVLYESRNKNSVA, WASTRES, QQYHRLPLS; each variant's own CDRs replace them letter for letter. All variants listed here change S28 of the VL, counted from its first residue. Values are apparent Kd, the geometric mean of the replicates that gave a signal; lower means stronger binding. Where no diploid with the target was found in any replicate, the entry reads "no signal": below detection, most likely a poor binder, though not proof of it.

| CDR-L1 | CDR-L2 | CDR-L3 | Kd (apparent) | detected |
|---|---|---|---|---|
| KSSQPDLYESRNKNSVA | WASTRES | EQYHRLPLS | 27 nM | 3 of 3 |
| KSSQTVLYESRNKNMVA | WASTRES | QQYHRKPLS | 7.5 µM | 2 of 3 |
| KSSQQVLYEWRNKNSVA | WASTTES | QQYHRLPLS | 120 µM | 1 of 3 |
| KYSQTVLYESRNKNSVC | WASTRES | QQYHRLPLS | 4.5 µM | 2 of 3 |
| KSSQYVLYESRNMNSVA | WASTRES | QHYHRLPLS | 9.4 µM | 3 of 3 |
| KSSQPVLYESRNKNSVA | WASTGES | QQYHRLPLS | no signal | 0 of 3 |
| KSSQHVLYMSRNKNSVA | WASTRES | QMYHRLPLS | 17 nM | 3 of 3 |
| KSSQFVDYESRNKNSVA | WASTRES | QQTHRLPLS | no signal | 0 of 3 |
| KSSQGVLYESRNKNSVA | WSSTREE | QQYHRLPLS | 9.9 nM | 3 of 3 |
| KSSQRVAYESRNKNSVA | VASTRES | QQYHRLPLS | 10 µM | 2 of 3 |
| KSSQVVLYESRNKNSVA | WASTRES | QQYHVLPLS | 1.6 µM | 2 of 3 |
| KSSQCVLYESRNKNSVA | WASNDES | QQYHRLPLS | 120 nM | 1 of 3 |
| KSSQPVLYESRNKESVA | WASTRES | QQYHDLPLS | 22 nM | 3 of 3 |
| KSSQVVLYESRNKNSVA | WASTRES | QQYHRLPLS | 70 nM | 3 of 3 |
| KWSQQVLYESRNKNSVA | WASTRES | QSYHRLPLS | 1.1 nM | 3 of 3 |
| KSSQQVLYESRNKNSVA | WASGRES | QQYHRLPLS | 2.4 µM | 3 of 3 |
| KSSQWVLYESRNKNSVA | WASTRES | QQGHRLPLS | no signal | 0 of 3 |
| KSSQAVLPESRNKNSVA | WASKRES | QQYHRLPLS | 27 nM | 3 of 3 |
| KSSTKVHYESRNKNSVA | WASTRES | QQYHRLPLS | 46 nM | 3 of 3 |
| KSSQMVLYGSPNKNSVA | WASTRES | QQYHRLPLS | 17 nM | 3 of 3 |
| KSSQVVLYESRNKNSPA | WMSTRES | QQYHRLPLS | 12 nM | 3 of 3 |
| KSSQYVLYPSRNKNSVA | WASTLES | QQYHRLPLS | 160 nM | 3 of 3 |
| KSSQLVFYESRNKNSVA | WASTRES | QQYHRLDLS | 500 nM | 3 of 3 |
| KSSQDVKYESRNDNSVA | WASTRES | QQYHRLPLS | 7.5 nM | 3 of 3 |
| KSFQKVLYESRNKNSVA | WASTFES | QQYHRLPLS | 3.6 µM | 3 of 3 |
| WSSQAVLYESRNKNSVA | WASRRES | QQYHRLPLS | 1.8 µM | 3 of 3 |
| KSSNFVLKESRNKNSVA | WASTRES | QQYHRLPLS | 320 nM | 3 of 3 |
| KSSQNVLYRSRNKNSVA | WASTRES | QQYHGLPLS | 82 nM | 3 of 3 |
| KSSQTVLYESRNKNWVA | WASTRES | QQYHRLPLS | 33 µM | 3 of 3 |
| KSSQKVLYESRFKNSVA | WASTRES | QQYHRSPLS | 280 µM | 2 of 3 |
| KTSQPVLYCSRNKNSVA | WASTRES | QQYHRLPLS | 120 nM | 3 of 3 |
| KSSQIVLYESRNKNSVA | WASTRES | QQYHRLMLW | no signal | 0 of 3 |
| KSSQQVLYESLNKNSVA | WASTRGS | QQYHRLPLS | 210 nM | 3 of 3 |
| KSSQEVLYESRNKNSVV | WASTRES | QQYHQLPLS | 2.3 µM | 3 of 3 |
| KSSQVVLYESRNKNSVA | WAGGRES | QQYHRLPLS | 98 µM | 3 of 3 |
| KSSQNVLYESRNKNSVG | WASTRES | QQYHRLPQS | 26 µM | 2 of 3 |
| KSSQFVLDESRNKNTVA | WASTRES | QQYHRLPLS | 6.5 nM | 3 of 3 |
| KSSQIVLYESRNKNSVA | WASTRES | QQYHRLPLS | no signal | 0 of 3 |
| KSDQLVLYESRNKNSVA | WASTRES | QQYHRKPLS | no signal | 0 of 3 |
| KSWQTVLYESRNKNEVA | WASTRES | QQYHRLPLS | 990 nM | 2 of 3 |
| KSSKEVLYESRNKNSVA | WASTRES | QQYNRLPLS | 10 nM | 3 of 3 |
| KSSQIVLYETRNKNSVA | WASTRES | QQYHNLPLS | 1.5 µM | 3 of 3 |
| KSSDGVLYESRNKNSVA | WASTRES | QQMHRLPLS | 3.6 nM | 3 of 3 |
| KSWQNVLYESRNKNSVA | KASTRES | QQYHRLPLS | 5.5 nM | 3 of 3 |
| KSSQAVLYESRNKNSVA | WASTRED | QQYHRLPLV | 6.2 nM | 3 of 3 |
| KSSQLVLYESRNPNSVA | WASTRES | QQYHRFPLS | 280 nM | 3 of 3 |
| KSSQLVLYEKRNKNSVA | WASTREK | QQYHRLPLS | 800 nM | 2 of 3 |
| KSSQCVLYESRNKNSVA | WASTRES | QDYHRLPLH | 2.7 µM | 3 of 3 |

As a blank, each scFv also met three strains without target: over library AAYL50, 18% of these pairings were detected, typically at 15 µM and seldom below 970 nM. Parent in this assay: reference entry 4.4 nM, copy in this library 48 nM.

Source: Engelhart et al. 2022 (doi:10.1038/s41597-022-01779-4), MIT Lincoln Laboratory and A-Alpha Bio; data file from the FLAb repository.